# Sampled rows, rich in hits. Any-hit rate of the full collection: about 1.5%.
# Yeast UUG start = modulators of yeast start codon fidelity, primary screen, whole organism, S. cerevisiae, single point, plate reader | AID 602363, 2012 | S. cerevisiae UUG-firefly luciferase reporter, luminescence/redox ratio | activity score, % at 18.7 µM | hit rate 0.13% among 350,000;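 active = replicate mean at a twofold rise or more, about +100% in these data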;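 also: firefly luciferase made from a UUG start codon reports start codon fidelity; reporter light over untreated wells divided by growth signal over untreated wells; some hits fall short of that in this replicate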
# RAD52 anneal inh = RAD52 (human) annealing inhibition | P43351 | recombinant RAD52 DNA annealing, FRET fluorescence | inhibition, % at 18.7 µM | 360,000 compounds, 0.46% hits | AID 651710;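 active means every replicate showing at least 50% inhibition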
# Casp6 inh = blocks human caspase-6 cleavage activity; AID 686996; inhibition, % at 12.5 µM; purified caspase-6, Z-VEID-R110 cleavage fluorescence; 350,000 compounds, 0.53% hits;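 active means mean inhibition across replicates at least about 35%, with every replicate also reaching that limit, limit read from the data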;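 further: 0% = median of neutral control wells and 100% = no fluorescence left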
# GSIS activator = primary screen for activators of insulin secretion dependent on glucose, INS-1E cells, GLuc reporter luminescence; INS-1E GLuc reporter insulin secretion, 2-3 h; activation, % at 16.6 µM; 370,000 compounds, 0.61% hits; AID 743287;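 active means lowest replicate activation of at least 40%, so every replicate reaches that level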;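 further: 0% = median of neutral control wells and 100% = median of IBMX positive control wells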
# RAD54 inh = blocks human RAD54 Holliday junction branch migration; FAM/BHQ fluorescence; inhibition, % at 10.4 µM; 360,000 compounds, 0.14% hits; AID 602329;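 active means mean normalized replicate activity at least 40 and at least half of replicates scoring 40 or more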;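 further: 0% = median of neutral control wells and 100% = median of positive control wells; inhibitors cause a drop in the FAM fluorescence signal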
# PglD DTNB = inhibitors of Campylobacter jejuni PglD acetyltransferase. inhibition, % at 12.5 µM. purified PglD enzyme, DTNB colorimetric CoA detection. 360,000 compounds, 0.098% hits; in the data active means inhibition above about 16%, passing the limit was not always enough
# DNA binder FP = counter-screen for RAD52 inhibitors: DNA binding compounds. shares compounds with RAD52 anneal inh. AID 652128. AC50, µM. 1,000 compounds, 8% hits. Salmon sperm DNA/acridine orange FP displacement;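 active means fitted half-maximal concentration for signal loss at or below twice the highest dose tested, in every separate run, actives reach about 64 µM in these data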
# * = called active by the depositor; i = inactive; nt = not tested or not shown.
# A first look:
# Second line of a record – Yeast UUG start, RAD52 anneal inh, Casp6 inh, GSIS activator, RAD54 inh, PglD DTNB, DNA binder FP
(1) CN(C)CCCNC(=S)N(CCCN(C)C)Cc1cc2cc3c(cc2[nH]c1=O)OCO3
    4.5, 39.9, -33.6, 1.7, 29.0, 1.7, nt
(2) O=C(CN(C(=O)CCC(=O)Nc1nccs1)c1ccc(F)cc1)NCc1ccco1
    -16.8, nt, nt, -1.1, 1.9, -0.4, nt

# All compounds of this part, from the first entry:
# Second line of a record – Yeast UUG start, RAD52 anneal inh, Casp6 inh, GSIS activator, RAD54 inh, PglD DTNB, DNA binder FP
(1) CN(C)CCCNC(=S)N(CCCN(C)C)Cc1cc2cc3c(cc2[nH]c1=O)OCO3
    4.5, 39.9, -33.6, 1.7, 29.0, 1.7, nt
(2) O=C(CN(C(=O)CCC(=O)Nc1nccs1)c1ccc(F)cc1)NCc1ccco1
    -16.8, nt, nt, -1.1, 1.9, -0.4, nt
(3) CC1(c2ccc3ccccc3c2)NC(=O)N(CC(=O)O)C1=O (configuration not stated)
    nt, -14.7, -0.4, 23.8, nt, nt, nt
(4) CN[C@H]1C[C@H]2c3[nH]c4ccc(-c5cccc(C)c5)cc4c3CCN2C[C@H]1[C@H](C)O
    -5.7, 58.5*, -9.1, 0.3, 3.4, 1.6, i
(5) Cc1cccc(-c2ccc3[nH]c4c(c3c2)CCN2C[C@H]3[C@H](C)ON(C)[C@H]3C[C@@H]42)c1
    1.1, 59.7*, -9.6, 13.0, 0.0, 4.2, i
(6) Cc1cccc(-c2ccc3[nH]c4c(c3c2)CCN2C[C@@H]([C@H](C)O)[C@@H](N(C)C(=O)NC3CCCCC3)C[C@@H]42)c1
    -7.9, 5.9, -9.8, -3.5, 4.4, -4.4, nt
(7) Cc1cccc(-c2ccc3c(c2)[C@@H]2C[C@H]4[C@@H](CN2CC3)[C@H](C)ON4C)c1
    nt, 17.6, -11.7, -26.8, nt, nt, nt
(8) CC(=O)c1c(NCc2ccccc2)nc(=O)n(-c2ccccc2)c1C
    -7.9, nt, nt, nt, 8.2, 2.6, nt
(9) CCn1c(C)c(C(C)=O)c(NCc2ccccc2)nc1=S
    9.2, 67.7*, 2.4, 1.5, 6.5, -2.3, i
(10) CC(=O)c1c(NCCc2ccccc2)nc(=S)n(-c2ccccc2)c1C
    nt, 58.3*, -1.7, 6.1, nt, nt, i

# The list continues:
# Second line of a record – Yeast UUG start, RAD52 anneal inh, Casp6 inh, GSIS activator, RAD54 inh, PglD DTNB, DNA binder FP
(11) CC(C)c1ccc(NC(=O)C2(C)Cc3c(-c4cccc(C(F)(F)F)c4)ccnc3O2)cc1 (configuration not stated)
    -4.4, -8.5, 5.7, -6.7, 5.1, -2.7, nt
(12) O=C(Nc1ccc(N2CCN(C(=O)c3ccccc3)CC2)cc1)c1ccc2c(c1)OCCO2
    -7.4, -6.2, -1.0, -3.5, 5.2, -1.1, nt
(13) CC(C)=N/N=C(/c1ccc([N+](=O)[O-])cc1)C12CN3CN(CN(C3)C1)C2
    nt, 95.2*, -71.7, 9.7, nt, nt, i
(14) OC[C@@H]1CN(Cc2ccc3c(c2)OCO3)C[C@H](n2cnc3c(N4CCCC4)ncnc32)O1
    -1.5, 86.0*, -4.4, -1.7, 4.1, 2.6, i
(15) OC[C@@H]1CN(Cc2ccc3c(c2)OCO3)C[C@H](n2cnc3c(N4CCOCC4)ncnc32)O1
    nt, -11.0, 0.6, 16.0, -2.5, -5.3, nt
(16) COc1ccc(OCC(=O)OCCNC(=O)c2cccnc2)cc1
    nt, -4.3, -3.1, 7.6, nt, nt, nt
(17) CN(Cc1cccnc1)C(=O)Cc1ccc(NS(=O)(=O)c2cccc(C(F)(F)F)c2)cc1
    -12.7, -20.7, -3.9, -15.7, 0.4, -0.3, nt
(18) OCCN1CCN(CCCN2c3ccccc3Sc3ccc(Cl)cc32)CC1
    -12.4, 102.3*, -8.1, nt, 12.4, 1.1, i
(19) CN(C)CCCN1c2ccccc2Sc2ccc(Cl)cc21
    -4.5, 100.8*, 1.1, -28.9, 25.7, 1.4, i
(20) OC[C@@H]1CN(CCc2ccccc2)C[C@H](n2cnc3c(NCc4ccc(F)cc4)ncnc32)O1
    nt, 74.5*, -0.5, nt, -3.9, -3.6, i

# (further entries)
# Second line of a record – Yeast UUG start, RAD52 anneal inh, Casp6 inh, GSIS activator, RAD54 inh, PglD DTNB, DNA binder FP
(21) COc1ccc(C(=O)n2nc(-c3ccccc3)nc2SC)cc1
    13.9, nt, nt, 38.2, -1.0, 4.8, nt
(22) COc1ccc(-c2ccc3[nH]c4c(c3c2)CCN2C[C@@H]([C@H](C)OC(=O)Nc3cc(Cl)cc(Cl)c3)[C@@H](N(C)C(=O)Nc3cc(Cl)cc(Cl)c3)C[C@@H]42)cc1
    -20.6, -51.6, -2.6, -0.1, 3.5, -7.6, nt
(23) COc1ccc(NC(=O)O[C@@H](C)[C@@H]2CN3CCc4c([nH]c5ccc(-c6ccc(OC)cc6)cc45)[C@@H]3C[C@@H]2N(C)C(=O)Nc2ccc(OC)cc2)cc1
    -11.2, 53.0*, -2.9, -2.0, -4.4, -2.9, i
(24) CN(C)CCn1cnc2c(c1=N)C(c1ccccc1)c1ccc3ccccc3c1O2 (configuration not stated)
    3.4, -20.9, -10.6, -13.1, 17.4, 1.8, i
(25) CCS(=O)(=O)c1nc(S(=O)(=O)c2ccc(C)cc2)c(N2CCC3(CC2)OCCO3)s1
    47.7, -4.7, -0.1, 11.5, -5.4, 3.4, nt
(26) Cc1[nH]c2c(Cl)cccc2c(=O)c1CN1CCCCCC1
    11.3, -3.1, -41.9, -1.9, -15.9, -5.7, nt
(27) Cc1ccc2c(=O)c(CN3CCCCCC3)c(C)[nH]c2c1C
    -3.7, 44.0, -48.9, -10.7, -17.4, -10.8, i
(28) CCCCCc1cc(=O)oc2c(C(CCN3CCCC(C)C3)c3ccc(N(C)C)cc3)c(OC)cc(OC)c12 (configuration not stated)
    -3.8, nt, nt, nt, -9.6, -4.3, nt
(29) CCCCCc1cc(=O)oc2c(C(CCN(CC)CC)c3ccc(N(C)C)cc3)c(OC)cc(OC)c12 (configuration not stated)
    -18.8, 59.7*, -1.7, nt, 16.8, 0.4, i
(30) Oc1c(CN2CCCCC2)ccc2cccnc12
    -35.7, 63.0*, 69.3*, -6.3, 4.1, -2.7, i

# (further entries)
# Second line of a record – Yeast UUG start, RAD52 anneal inh, Casp6 inh, GSIS activator, RAD54 inh, PglD DTNB, DNA binder FP
(31) CCCCCCCOC(=O)C[N+](C)(C)CCOC1CC2CCC1(C)C2(C)C (configuration not stated)
    nt, 85.4*, -44.0, 433.5*, nt, nt, i
(32) CC[n+]1c(C=C2C=C(C)OC(C)=C2)sc2ccccc21
    nt, 58.7*, nt, -30.7, nt, nt, i
(33) COc1ccc(C2NCCc3c2[nH]c2ccccc32)cc1COc1ccc(F)cc1 (configuration not stated)
    nt, 85.4*, -23.6, -11.6, nt, nt, i
(34) COc1ccc(C2NC(C(=O)O)Cc3c2[nH]c2ccccc32)cc1CN1CCN(c2ccc(F)cc2)CC1 (configuration not stated)
    -4.1, -10.0, 0.7, -11.6, -6.2, 8.7, nt
(35) O=C(NCC1CCCCC1)C1(CC2CC(c3ccc(Cl)cc3)=NO2)CCNCC1 (configuration not stated)
    -14.0, 66.9*, -1.1, nt, 11.0, 1.7, i
(36) Cc1cc(N/N=C/c2ccccc2O)c2ccccc2n1
    -5.0, 102.1*, -10.1, -2.8, 104.5*, -14.0, i
(37) CC(=O)c1ccc(NC(=O)CNC2CCCCC2)cc1
    -5.8, 11.1, -7.5, -11.0, 3.9, -7.4, nt
(38) O=C(CNC1CCCC1)Nc1ccc(N2CCCCCC2)cc1
    nt, 78.3*, -4.8, -20.5, nt, nt, i
(39) CC1CCN(CC(=O)Nc2ccc(N3CCCCCC3)cc2)CC1
    nt, 75.0*, -5.7, -13.1, nt, nt, i
(40) CC(O)CNc1ccc(-c2n[nH]c(=O)c3ccccc23)cc1[N+](=O)[O-] (configuration not stated)
    -6.2, -18.4, 4.2, 31.5, -7.2, -0.8, nt
(41) CN(C)CCCNc1ccc(-c2n[nH]c(=O)c3ccccc23)cc1[N+](=O)[O-]
    -5.0, 66.4*, -49.3, nt, 27.7, 3.1, i
(42) Cc1cc(C)c2c(N)c3cccc(C)c3nc2n1
    nt, 78.4*, -1.8, nt, nt, nt, 32.2µM*

# Reformatted: entries from further up.
No.	canonical_smiles	Yeast UUG start	RAD52 anneal inh	Casp6 inh	GSIS activator	RAD54 inh	PglD DTNB	DNA binder FP
34	COc1ccc(C2NC(C(=O)O)Cc3c2[nH]c2ccccc32)cc1CN1CCN(c2ccc(F)cc2)CC1 (configuration not stated)	-4.1	-10.0	0.7	-11.6	-6.2	8.7	nt
35	O=C(NCC1CCCCC1)C1(CC2CC(c3ccc(Cl)cc3)=NO2)CCNCC1 (configuration not stated)	-14.0	66.9*	-1.1	nt	11.0	1.7	i

# Assay outcomes: PubChem, Broad Institute
